The entries are a selection whose mix differs from that of the whole data set. Some results for these compounds are left out of this collection, so the calls shown say nothing about other tests. Inconclusive results are not listed. Active and inactive are the calls of the source. Calls follow the shape of the dose curve; as a rule, active = well fitted activation curve with a large enough effect in the repeat runs; inconclusive = weak or mixed curves; inactive = no such curve, though single readings can be large or run the other way.
Biological target: Nuclear receptor subfamily 1 group I member 2 (Rattus norvegicus) (UniProt Q9R1A7)
Test: Rat pregnane X receptor (rPXR) activation by small molecules, qHTS assay; also: nearly all actives have a fitted effect of over 20% in size
Details: rPXR luciferase reporter cells, One-Glo luminescence, 24 h; stronger effect = higher value
Source text: National Center for Advancing Translational Sciences [NCATS] NIH Chemical Genomics Center [NCGC] U.S. Environmental Protection Agency [EPA] National Institutes of Environmental Health Sciences [NIEHS] National Toxicology Program [NTP] Assay overview: The Pregnane X receptor (PXR), a ligand activated nuclear receptor plays a critical role in the regulation of genes involved in drug metabolism and transporters. PXR binds xenobiotics and when compounds interact with PXR produces enhanced expression of CYP3A genes. In humans PXR activation and CYP3A4 induction can be problematic due to their interactions with co-medicated drugs and decrease their efficacy or increase their own metabolism. However, there are known species-specific differences with regard to PXR activation that should be taken into account when animal PXR data are extrapolated to humans. A cell based rat PXR (rPXR) assay (developed by Puracyp, Inc., CA) was used to assess the activation of rPXR.
Assay Protocol Summary: rPXR cells were dispensed at 2,000 per well in 5uL of assay medium into white, solid-bottom 1536-well plates using a Multidrop Combi dispenser (Thermo Scientific). […] Then 5ul One-Glo assay reagent (Promega) was added to each plate by a Flying Reagent Dispenser (FRD, Aurora Discovery) and following 30 min incubation at room temperature, luciferase activity was quantified on a ViewLux plate reader (Perkin Elmer).
% is scaled to controls: 0 for no effect and ±100 for the full control effect.

Protein sequences, listed by entry. Tags and fused reporters are not part of them.
UniProt Q9R1A7, whole entry: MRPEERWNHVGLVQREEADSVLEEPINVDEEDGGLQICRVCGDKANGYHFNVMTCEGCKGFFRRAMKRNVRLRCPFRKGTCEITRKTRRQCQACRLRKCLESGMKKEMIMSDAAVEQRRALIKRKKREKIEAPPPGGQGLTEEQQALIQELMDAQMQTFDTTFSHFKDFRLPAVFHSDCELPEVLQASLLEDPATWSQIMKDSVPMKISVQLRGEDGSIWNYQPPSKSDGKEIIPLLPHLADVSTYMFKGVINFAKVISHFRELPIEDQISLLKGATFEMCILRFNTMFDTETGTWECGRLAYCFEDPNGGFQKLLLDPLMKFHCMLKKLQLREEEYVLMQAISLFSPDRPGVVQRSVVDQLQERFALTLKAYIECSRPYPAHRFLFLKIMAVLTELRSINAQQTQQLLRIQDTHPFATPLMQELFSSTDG

Question: `CN1CCCC(OC(=O)C(O)(c2ccccc2)c2ccccc2)C1` (stereo unspecified) was tested. Which max activation did it give?
Answer: The max activation was inactive: 2.3%.
